Holding throughout (conditions): 20 µM; incubation time: 27 h, anaerobic, 37 °C
Test [1] relates to Clostridium sporogenes DSM 1664. The test can be described thus: growth (OD595) fold change vs plate DMSO controls (fold change (ratio)); higher = more growth. Put shortly:
(§1)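 Anaerobic 27 h, 37 °C mGAM 96-well cultures were shaken, then read for absorbance at 595 nm. Values were blank-subtracted and corrected for compound background using 20 µM compound solutions in water. A calibration factor of 5 converted them to OD. Growth is the fold change versus the median of plate DMSO controls. Fold changes above 1.5 were set to NA, and values are the mean of 2 biological replicates.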

The subject of test [2] is Escherichia coli IAI1. Described as above. Put shortly: as §1
Test [3] relates to Klebsiella aerogenes DSM 30053. Described as above. Put shortly: as §1
The test system of test [4] is Klebsiella aerogenes DSM 30053. The test can be described thus: fold change of Histamine concentration vs plate DMSO controls (fold change (ratio)); higher = more amine produced, active = hit call of the paper (significant change in both replicates, either direction). Put shortly:
(§2)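 Using LC–triple-quadrupole MS with dynamic MRM, amines were quantified against external calibration curves and corrected for drift within each batch. Samples were whole anaerobic mGAM cultures of four gut strains, grown 27 h at 37 °C from OD 0.1 before 1:1 dilution, extracted with cold acetonitrile/methanol containing 0.1% formic acid and centrifuged. Compounds were present at 20 µM final (sweeteners at 50 µM final). The numbers are fold changes versus plate DMSO controls, each the mean of 2 biological replicates.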

Test [5] has as its system Escherichia coli IAI1. The test can be described thus: fold change of Putrescine concentration vs plate DMSO controls (fold change (ratio)); higher = more amine produced, active = hit call of the paper (significant change in both replicates, either direction). Put shortly:
as §2

For test [6], the system named is Klebsiella aerogenes DSM 30053. The test is described as above. An outline of the steps:
as §2

The test system of test [7] is Clostridium sporogenes DSM 1664. The test is described as follows: fold change of Tryptamine concentration vs plate DMSO controls (fold change (ratio)); higher = more amine produced, active = hit call of the paper (significant change in both replicates, either direction). An outline of the steps: as §2
Test [8] concerns Ruminococcus gnavus DSM 108212. Described as above. Put shortly: as §2
Test [9] deals with Escherichia coli IAI1. The test can be described thus: fold change of Cadaverine concentration vs plate DMSO controls (fold change (ratio)); higher = more amine produced, active = hit call of the paper (significant change in both replicates, either direction). Put shortly: as §2
For test [10], the system named is Klebsiella aerogenes DSM 30053. The description is as above. An outline of the steps:
as §2

The test system of test [11] is Ruminococcus gnavus DSM 108212. The test can be described thus: fold change of 2-Phenylethylamine concentration vs plate DMSO controls (fold change (ratio)); higher = more amine produced, active = hit call of the paper (significant change in both replicates, either direction). Put shortly: as §2

For some assays here: What follows is the remainder of the data, with few or none of the hits.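 Rule for the calls: for the amine columns active = adjusted P below 0.05 in both replicates with a change the same way and a mean fold change under 0.8 or over 1.25; inactive = the rest.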 For some assays here: Shown are results outside the selection of lowest values, which stands elsewhere. Only a part is listed here, and it is no random draw.

This is an account of results in the supplement of paper PMC12494721.

With `COc1cc(Br)c(C[N+]2(CCOCCC3CCC4CC3C4(C)C)CCOCC2)cc1OC` (stereo unspecified) [Pinaverium bromide], the values for the growth (in test [1]; in the test on Escherichia coli IAI1 [2]; in [3]) were 0.807, 1.03 and 0.963, respectively. In addition, the “fold change of Histamine concentration” value in test [4] was inactive: 0.916. Further, the “fold change of Putrescine concentration” value in the test on Escherichia coli IAI1 [5] is inactive: 0.904; in test [6], inactive: 0.93. Moreover, the results for the “fold change of Tryptamine concentration” value in [7] and in test [8] were inactive: 1.07 and inactive: 0.964, respectively. For the same molecule, the “fold change of Cadaverine concentration” value in the test on Escherichia coli IAI1 [9] is inactive: 0.544; in test [10], inactive: 1.01. Also, the “fold change of 2-Phenylethylamine concentration” value in test [11] is inactive: 1.34.
